Consider one compound from PMC4207131, “Cyclic Adenosine 5′-Diphosphate Ribose Analogs without a “Southern” Ribose Inhibit ADP-ribosyl Cyclase–Hydrolase CD38” (Journal of Medicinal Chemistry, 2014).

By UniProt entry, the sequences of proteins in these tests, tags left out. Residues count along the entry.
UniProt P28907, 43-300 N100D/N164A/N209D/N219D limits assumed: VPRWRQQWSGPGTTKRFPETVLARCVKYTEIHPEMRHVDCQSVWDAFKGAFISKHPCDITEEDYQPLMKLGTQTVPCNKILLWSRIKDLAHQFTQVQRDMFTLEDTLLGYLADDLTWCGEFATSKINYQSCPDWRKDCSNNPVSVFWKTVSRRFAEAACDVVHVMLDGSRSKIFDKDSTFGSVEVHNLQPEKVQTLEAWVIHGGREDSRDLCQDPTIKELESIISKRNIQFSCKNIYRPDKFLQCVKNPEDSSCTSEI

This assay addresses CD38 catalytic domain (shCD38) (Homo sapiens, UniProt P28907, N100D/N164A/N209D/N219D). The experiment in a line: Inhibition of shCD38-mediated cADPR hydrolysis (fluorimetric cycling assay). The class given is biochemical. Further details: incubating 1 μM cADPR with 1 μg/mL CD38 catalytic domain for 10 min; made in house. To be noted: 1 μM cADPR, 1 μg/mL CD38 catalytic domain, 10 min, 20–24 °C, 25 mM sodium acetate pH 4.5. As to the method: The inhibition of cADPR hydrolysis by various concentrations of analog (0–1 mM) was determined by incubating 1 μM cADPR with 1 μg/mL CD38 catalytic domain for 10 min at 20–24 °C in 25 mM sodium acetate, pH 4.5. The reaction was stopped by the addition of 150 mM HCl. The precipitated protein was filtered, and the pH was neutralized with Tris base. After the mixture was diluted 20-fold, the concentration of the unhydrolyzed cADPR present in the diluted reaction mixture was assayed by the fluorimetric cycling assay as described previously.[52]

Structures are written as SMILES.

Take `O=c1c2ncn3c2ncn1[C@@H]1O[C@H](COP(=O)(O)OP(=O)(O)OCCCC3)[C@@H](O)[C@H]1O` [compound 4, N1-Cyclic Hypoxanthine-N9-hydroxybutyl Diphosphate Ribose]: the 50% inhibitory concentration (IC50) came to 33 µM.

Usually IC50 stands for the concentration needed to halve the response being measured.
